Source: ChEMBL document CHEMBL1125579, “Relative structure-inhibition analyses of the N-benzoyl and N-(phenylsulfonyl) amino acid aldose reductase inhibitors” (J Med Chem, 1991)

What was measured:
[1] = biological target: T1, Aldo-keto reductase family 1 member B1 (Rattus norvegicus, UniProt P07943); assay: Inhibitory activity against aldose reductase in rat lens
Summary of the method: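 Rat lens enzyme: 100 lenses from frozen rat eyes homogenized in distilled water and centrifuged at 5 °C; the supernatant was brought to 40% ammonium sulfate saturation and the freshly prepared supernatant was used. Assay at 30 °C in 0.1 M phosphate pH 6.2 with 0.104 mM NADPH and 10 mM DL-glyceraldehyde. NADPH loss was read at 340 nm for 3 min. IC50 from ≥6 concentrations, ≥2 determinations each, by least-squares fit of log dose-response.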

[2] = biological target: T1, Aldo-keto reductase family 1 member B1; assay: The compound was tested for the inhibition of Aldose reductase in rat lens assay.

Which results are given for `O=C1NC(=O)[C@@]2(CCOc3ccc(F)cc32)N1` [SORBINIL]?
IC50 [1]: 190 nM; IC50 [2]: 70 nM
